Measurements reported in PMC12503259, “Establishment of an in vivo analytical method for detecting total anti-UFH activity and pharmacokinetic study in PS and R15 in rats” (PLOS One, 2025).

Test: Pharmacokinetic study in Wistar rats, total anti-heparin activity in plasma (fixed UFH added, residual UFH by anti-FXa kit)
Assay type: in vivo
Method: Processing of Plasma Samples: 100 μL of the unknown plasma sample was added to 500 μL of 75% methanol (methanol: water = 75:25, v/v) and vortex-mixed for 5 seconds. The mixture was then centrifuged at 12,000 r/min for 10 minutes at 25°C. The supernatant (500 μL) was collected and dried under nitrogen at 60°C. Subsequently, UFH (0.14 U·mL^-1 for PS and 0.15 U·mL^-1 for R15; 120 μL) was added, and the mixture was vigorously shaken at room temperature for 10 minutes. The residual UFH content was measured using the Heparin Anti-FXa assay kit.
The detailed procedure is as follows: Accurately pipette 40 μL of the sample into a 96-well plate. Place the plate in a microplate shaker. Using a multichannel pipette, add 40 μL of reagent R1 and mix by shaking. Incubate at 37 °C for exactly 3 minutes (start timing upon addition of R1; at 50 seconds, begin shaking with the microplate shaker for 1 minute, then place the plate in the incubator). Remove the 96-well plate from the incubator and place it on the open microplate shaker. Using a multichannel pipette, add 40 μL of reagent R2 to each well and incubate at 37 °C for 6 minutes (after adding R2, at 3 minutes and 50 seconds, open the microplate shaker and shake for 4 minutes, then return the plate to the incubator). Remove the 96-well plate from the incubator and place it on the open microplate shaker. Quickly add 40 μL of reagent R3 using a multichannel pipette and shake until 9 minutes and 10 seconds. At 9 minutes and 30 seconds, add 80 μL of 20% acetic acid to each well to terminate the reaction. Measure the absorbance at 405 nm using a microplate reader (Multiskan FC, Thermo Fisher US).
Eight Wistar rats (approximately 250 g; equally divided by sex and acclimatized for 1 week in the animal facility) were used for profiling pharmacokinetics of PS. Each rat was cannulated in carotid artery to collect blood the day before the experiment. PS was injected through the tail vein and blood samples were collected at 0 min, 1 min, 3 min, 5 min, 7 min, 9 min, 11 min, 15 min, 20 min, 30 min, 60 min and 120 min in a tube containing 4% sodium citrate. Plasma was achieved by centrifugation at 8000 r/min for 10 min, and stored in the refrigerator at −80°C. […]
During the analysis of actual samples, a standard curve and a series of calibration standards were established for each analytical batch to determine the concentration of PS and R15 in plasma. The concentrations were plotted on the X-axis, and the data were fitted using Equation (3).
Weighted least squares regression was used for the calculations. The Optical Density (OD) values of the unknown biological samples were substituted into the equation to determine the concentration of PS and R15, respectively.
Pharmacokinetic parameters of PS were calculated by WinNonlin 6.4, and all data were processed by Microsoft Excel 2013 and GraphPad Prism 8.3.

[1] = R15 900 U·kg^-1 single iv tail vein, Wistar rats, Total (male and female), mean ± SD, n = 8
[2] = R15 900 U·kg^-1 single iv tail vein, Wistar rats, female, mean ± SD, n = 4
[3] = R15 900 U·kg^-1 single iv tail vein, Wistar rats, male, mean ± SD, n = 4
[4] = R15 2700 U/kg iv, rat 1# (male), single animal
[5] = R15 2700 U/kg iv, rat 5# (male), single animal
[6] = R15 2700 U/kg iv, rat 8# (male), single animal
[7] = R15 2700 U/kg iv, rat 13# (male), single animal
[8] = R15 2700 U/kg iv, rat 21# (female), single animal
[9] = R15 2700 U/kg iv, rat 22# (female), single animal
[10] = R15 2700 U/kg iv, rat 27# (female), single animal

Cmax (R15 900 U·kg^-1 single iv tail vein, Wistar rats, Total (male and female), at 1 min, mean ± SD, n = 8): 11.54 ± 1.14 µg/mL | AUC [1]: 1030 ± 178 µg·min/mL | CL [1]: 4.72 ± 0.81 mL/min/kg | MRT [1]: 1.573 ± 0.3602 h | T1/2 [1]: 1.519 ± 0.2653 h | Vd [1]: 608 ± 59 mL/kg | AUC [2]: 1063 ± 166 µg·min/mL | CL [2]: 4.50 ± 0.67 mL/min/kg | Cmax [2]: 11.62 ± 1.02 µg/mL | MRT [2]: 1.58 ± 0.28 h | T1/2 [2]: 1.552 ± 0.1923 h | Vd [2]: 599 ± 69 mL/kg | AUC [3]: 999 ± 209 µg·min/mL | CL [3]: 4.95 ± 0.98 mL/min/kg | Cmax [3]: 11.46 ± 1.41 µg/mL | MRT [3]: 1.567 ± 0.4735 h | T1/2 [3]: 1.486 ± 0.3528 h | Vd [3]: 616 ± 56 mL/kg | AUC [4]: 1918 min･µg･mL^-1 | CL [4]: 7.96 mL･min^-1･kg^-1 | Cmax [4]: 14.61 µg･mL^-1 | MRT [4]: 3.9907 h | T1/2 [4]: 1.9468 h | Vd [4]: 1341 mL･kg^-1 | AUC [5]: 654 min･µg･mL^-1 | CL [5]: 16.21 mL･min^-1･kg^-1 | Cmax [5]: 10.94 µg･mL^-1 | MRT [5]: 1.612 h | T1/2 [5]: 2.478 h | Vd [5]: 3477 mL･kg^-1 | AUC [6]: 1251 min･µg･mL^-1 | CL [6]: 12.01 mL･min^-1･kg^-1 | Cmax [6]: 12.70 µg･mL^-1 | MRT [6]: 2.8825 h | T1/2 [6]: 1.62 h | Vd [6]: 1684 mL･kg^-1 | AUC [7]: 1141 min･µg･mL^-1 | CL [7]: 11.69 mL･min^-1･kg^-1 | Cmax [7]: 13.51 µg･mL^-1 | MRT [7]: 3.637 h | T1/2 [7]: 4.081 h | Vd [7]: 4129 mL･kg^-1 | AUC [8]: 1674 min･µg･mL^-1 | CL [8]: 9.03 mL･min^-1･kg^-1 | Cmax [8]: 15.63 µg･mL^-1 | MRT [8]: 3.9175 h | T1/2 [8]: 2.1312 h | Vd [8]: 1667 mL･kg^-1 | AUC [9]: 1224 min･µg･mL^-1 | CL [9]: 11.11 mL･min^-1･kg^-1 | Cmax [9]: 8.27 µg･mL^-1 | MRT [9]: 3.7197 h | T1/2 [9]: 3.2153 h | Vd [9]: 3091 mL･kg^-1 | AUC [10]: 1156 min･µg･mL^-1 | CL [10]: 12.28 mL･min^-1･kg^-1 | Cmax [10]: 7.46 µg･mL^-1 | MRT [10]: 2.4073 h
SMILES: N=C(N)NCCC[C@H](NC(=O)[C@H](CCCNC(=N)N)NC(=O)[C@H](CCCNC(=N)N)NC(=O)[C@H](CCCNC(=N)N)NC(=O)[C@H](CCCNC(=N)N)NC(=O)[C@H](CCCNC(=N)N)NC(=O)[C@H](CCCNC(=N)N)NC(=O)[C@H](CCCNC(=N)N)NC(=O)[C@H](CCCNC(=N)N)NC(=O)[C@H](CCCNC(=N)N)NC(=O)[C@H](CCCNC(=N)N)NC(=O)[C@H](CCCNC(=N)N)NC(=O)[C@H](CCCNC(=N)N)NC(=O)[C@H](CCCNC(=N)N)NC(=O)[C@@H](N)CCCNC(=N)N)C(=O)O [R15]
